Each structure is given as a SMILES string.

Sequences of proteins named here, by UniProt entry; tags and fusion partners are left off. A change or cut given only in a name is not applied to a line headed by its entry.
UniProt P62813: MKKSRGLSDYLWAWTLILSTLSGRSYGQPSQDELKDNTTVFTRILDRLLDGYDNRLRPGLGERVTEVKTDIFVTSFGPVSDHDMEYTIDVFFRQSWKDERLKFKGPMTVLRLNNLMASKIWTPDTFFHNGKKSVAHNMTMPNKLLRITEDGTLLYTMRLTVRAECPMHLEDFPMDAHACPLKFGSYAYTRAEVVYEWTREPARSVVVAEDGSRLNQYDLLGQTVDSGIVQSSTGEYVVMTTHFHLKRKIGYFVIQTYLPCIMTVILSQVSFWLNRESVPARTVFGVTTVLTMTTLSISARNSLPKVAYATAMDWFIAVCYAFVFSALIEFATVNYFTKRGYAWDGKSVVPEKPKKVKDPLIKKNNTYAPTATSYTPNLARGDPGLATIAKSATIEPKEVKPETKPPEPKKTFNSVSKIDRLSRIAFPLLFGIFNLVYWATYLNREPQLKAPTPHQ

Test [1] concerns the target T1, Gamma-aminobutyric acid receptor subunit alpha-1 (Rattus norvegicus, UniProt P62813). The experiment in a line: Displacement of [3H]Ro15-1788 from GABAA alpha-1 receptor in Sprague-Dawley rat cerebellar membrane. Further details: species or system Cerebellum. On the technique in general: Loss of bound radioactivity is the signal in a displacement assay; it reports binding, not function.

For test [2], the target named is T1, Gamma-aminobutyric acid receptor subunit alpha-1. Briefly: Displacement of [3H]Ro15-1788 from GABAA alpha1 receptor in Sprague-Dawley rat cerebral cortex membrane. Type of test: tissue-based.

For `CC(=O)N(C)c1cccc(-c2ccnc3c(C(=O)c4cccs4)cnn23)c1` [INDIPLON], the Ki in test [1] came to 0.55 nM; in test [2] it was 0.45 nM.

One may read the Ki as the dissociation constant of the complex between target and ligand, obtained from inhibition or displacement.

The values are drawn from ChEMBL document CHEMBL1143976, “Synthesis of fluorine substituted pyrazolopyrimidines as potential leads for the development of PET-imaging agents for the GABAA receptors” (Bioorg Med Chem, 2008).
